As a reminder, the IC50 is the midpoint of a concentration-inhibition curve.

Amino acid sequences for entries named in this document (tags omitted).
UniProt P11802, whole entry, species assumed: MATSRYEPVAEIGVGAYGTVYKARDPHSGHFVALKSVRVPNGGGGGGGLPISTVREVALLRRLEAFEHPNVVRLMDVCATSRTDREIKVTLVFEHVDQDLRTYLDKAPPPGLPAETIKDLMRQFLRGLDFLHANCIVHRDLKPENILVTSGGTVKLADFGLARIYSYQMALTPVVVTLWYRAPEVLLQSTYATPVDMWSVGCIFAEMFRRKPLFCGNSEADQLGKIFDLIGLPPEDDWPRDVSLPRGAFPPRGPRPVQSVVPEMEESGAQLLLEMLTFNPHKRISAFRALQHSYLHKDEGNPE

For experiment [1], the target named is CDK4 (Homo sapiens, UniProt P11802). As to the kind of experiment: CDK inhibition assay, CDK4. Format: biochemical. The conditions noted are these: Table 1.
In experiment [2] the test system is CDK6. As to conditions: in words; cited from earlier work.

The structures appear in SMILES notation.

With `Cn1cnc2c(NCc3ccccc3)nc(NCCO)nc21` [Olomoucine, 2-(2-hydroxyethylamino)-6-benzylamino-9-methyl-purine], in experiment [1], the IC50 is greater than 1000 µM.

Turning to `CC[C@H](CO)Nc1nc(NCc2ccccc2)c2ncn(C(C)C)c2n1` [roscovitine, 6-(benzylamino)-2(R)-[{1-(hydroxy-methyl)propyl}amino]-9-isopropylpurine], the “activity against CDK6” value in experiment [2] was “neither has been found to be active”.

Source of the values: patent US6303618A, “Cyclin dependent kinase inhibiting purine derivatives” (priority 1997, dated 2001).
